# Source: patent US20030153539A1, “Method to potentiate the therapeutic efficacy of taxane and derivatives thereof” (priority 2000, published 2003)
# By UniProt entry, the sequences of proteins in these tests, tags left out.
# UniProt P05177, whole entry: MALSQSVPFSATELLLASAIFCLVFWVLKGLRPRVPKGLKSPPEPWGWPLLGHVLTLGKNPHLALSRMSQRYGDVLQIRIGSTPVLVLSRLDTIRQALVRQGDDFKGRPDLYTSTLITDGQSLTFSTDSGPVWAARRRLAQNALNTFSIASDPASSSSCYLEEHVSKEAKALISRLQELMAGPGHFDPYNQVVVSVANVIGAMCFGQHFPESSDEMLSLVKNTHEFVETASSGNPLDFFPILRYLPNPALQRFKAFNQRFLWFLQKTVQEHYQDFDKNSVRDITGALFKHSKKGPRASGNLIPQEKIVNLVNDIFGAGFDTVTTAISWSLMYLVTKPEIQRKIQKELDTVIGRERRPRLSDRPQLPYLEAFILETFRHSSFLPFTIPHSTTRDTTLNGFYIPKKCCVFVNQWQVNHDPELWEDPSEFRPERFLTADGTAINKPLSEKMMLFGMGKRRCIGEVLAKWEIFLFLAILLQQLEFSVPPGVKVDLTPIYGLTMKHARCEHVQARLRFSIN
# UniProt P11712, whole entry: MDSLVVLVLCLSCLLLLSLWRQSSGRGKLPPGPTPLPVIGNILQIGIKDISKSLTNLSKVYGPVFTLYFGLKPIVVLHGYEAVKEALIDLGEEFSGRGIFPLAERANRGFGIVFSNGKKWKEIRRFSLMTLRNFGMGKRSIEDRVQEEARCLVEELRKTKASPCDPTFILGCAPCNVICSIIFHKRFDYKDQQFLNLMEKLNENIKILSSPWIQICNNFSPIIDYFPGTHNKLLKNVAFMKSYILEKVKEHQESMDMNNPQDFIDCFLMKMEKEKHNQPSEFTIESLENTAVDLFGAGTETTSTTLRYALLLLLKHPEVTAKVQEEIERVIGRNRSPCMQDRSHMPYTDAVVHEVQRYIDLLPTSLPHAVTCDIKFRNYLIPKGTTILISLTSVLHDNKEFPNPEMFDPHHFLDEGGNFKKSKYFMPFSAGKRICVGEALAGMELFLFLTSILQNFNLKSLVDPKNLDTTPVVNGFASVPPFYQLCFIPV
# UniProt P33261, whole entry: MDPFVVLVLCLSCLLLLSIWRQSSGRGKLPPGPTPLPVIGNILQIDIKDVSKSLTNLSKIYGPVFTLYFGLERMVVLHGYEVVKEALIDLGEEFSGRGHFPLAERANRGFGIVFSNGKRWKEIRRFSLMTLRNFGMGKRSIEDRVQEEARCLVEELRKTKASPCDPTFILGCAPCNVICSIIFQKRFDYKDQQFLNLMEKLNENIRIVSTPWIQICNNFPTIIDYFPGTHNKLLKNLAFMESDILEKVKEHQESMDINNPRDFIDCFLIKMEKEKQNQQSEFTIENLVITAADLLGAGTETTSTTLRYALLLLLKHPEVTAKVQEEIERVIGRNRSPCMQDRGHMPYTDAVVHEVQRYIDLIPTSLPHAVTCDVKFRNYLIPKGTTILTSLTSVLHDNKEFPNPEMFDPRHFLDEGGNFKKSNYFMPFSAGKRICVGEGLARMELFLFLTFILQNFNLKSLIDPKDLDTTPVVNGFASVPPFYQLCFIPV
# UniProt P10635, whole entry: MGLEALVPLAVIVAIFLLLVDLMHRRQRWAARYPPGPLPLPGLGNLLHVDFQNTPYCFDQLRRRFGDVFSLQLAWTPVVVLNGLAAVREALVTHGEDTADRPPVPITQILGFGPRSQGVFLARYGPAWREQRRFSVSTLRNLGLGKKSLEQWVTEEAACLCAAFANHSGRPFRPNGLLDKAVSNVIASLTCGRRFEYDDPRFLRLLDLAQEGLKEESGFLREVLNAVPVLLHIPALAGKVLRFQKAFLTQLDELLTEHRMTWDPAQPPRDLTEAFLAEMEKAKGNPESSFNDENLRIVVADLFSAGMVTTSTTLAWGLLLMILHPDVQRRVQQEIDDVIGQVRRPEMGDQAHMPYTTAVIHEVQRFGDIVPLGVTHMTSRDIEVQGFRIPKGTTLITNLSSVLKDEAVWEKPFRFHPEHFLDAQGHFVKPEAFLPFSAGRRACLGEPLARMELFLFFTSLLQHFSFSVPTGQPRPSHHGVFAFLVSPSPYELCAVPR
# UniProt P08684, whole entry: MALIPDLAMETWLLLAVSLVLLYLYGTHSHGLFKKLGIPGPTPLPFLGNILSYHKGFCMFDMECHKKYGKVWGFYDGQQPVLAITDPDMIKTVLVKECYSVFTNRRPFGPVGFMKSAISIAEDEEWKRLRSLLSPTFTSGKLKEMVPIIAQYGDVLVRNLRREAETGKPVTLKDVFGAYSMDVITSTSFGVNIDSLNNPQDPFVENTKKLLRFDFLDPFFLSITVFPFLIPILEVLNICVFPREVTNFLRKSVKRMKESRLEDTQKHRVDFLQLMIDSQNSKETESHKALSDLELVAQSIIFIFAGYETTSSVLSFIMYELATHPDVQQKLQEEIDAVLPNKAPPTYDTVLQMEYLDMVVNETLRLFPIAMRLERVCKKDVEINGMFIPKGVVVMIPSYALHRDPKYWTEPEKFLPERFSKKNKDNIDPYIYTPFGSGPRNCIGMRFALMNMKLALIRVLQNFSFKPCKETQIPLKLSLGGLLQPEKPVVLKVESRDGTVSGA
# Assays:
# Details in all cases: control 100%, mean of n=3
# [1] = molecular target: CYP1A2 (Homo sapiens, UniProt P05177); experiment: In vitro inhibition of cDNA expressed human CYP1A2 (chlorzoxazone substrate, radio-HPLC)
# Protocol: (§1) All incubations were conducted in triplicate.
# (§2) See table 2 for HPLC mobile phase conditions.
# [2] = molecular target: CYP2C9 (Homo sapiens, UniProt P11712); experiment: In vitro inhibition of cDNA expressed human CYP2C9 (diclofenac substrate, radio-HPLC)
# Protocol: as §1, §2
# [3] = molecular target: CYP2C19 (Homo sapiens, UniProt P33261); experiment: In vitro inhibition of cDNA expressed human CYP2C19 ((S)-mephenytoin substrate, radio-HPLC)
# Protocol: as §1, §2
# [4] = molecular target: CYP2D6 (Homo sapiens, UniProt P10635); experiment: In vitro inhibition of cDNA expressed human CYP2D6 (delavirdine substrate, radio-HPLC)
# Protocol: as §1, §2
# [5] = molecular target: CYP3A4 (Homo sapiens, UniProt P08684); experiment: In vitro inhibition of cDNA expressed human CYP3A4 (testosterone substrate, radio-HPLC)
# Protocol: as §1, §2
smiles,measurement,setting,value
"C[C@]12CC[C@@H]3c4ccc(OC(=O)N(CCCl)CCCl)cc4CC[C@H]3[C@@H]1CC[C@@H]2OP(=O)(O)O [Estramustine phosphate, estramustine phosphate, reference compound]",percentage of activity remaining in the presence of the compound,"[1]; CYP1A2, compound at 10 μM",99.8%
same,percentage of activity remaining in the presence of the compound,"[1]; CYP1A2, compound at 100 μM",61.3%
same,percentage of activity remaining in the presence of the compound,"[2]; CYP2C9, compound at 10 μM",88.6%
same,percentage of activity remaining in the presence of the compound,"[2]; CYP2C9, compound at 100 μM",71.6%
same,percentage of activity remaining in the presence of the compound,"[3]; CYP2C19, compound at 10 μM",93.9%
same,percentage of activity remaining in the presence of the compound,"[3]; CYP2C19, compound at 100 μM",87.5%
same,percentage of activity remaining in the presence of the compound,"[4]; CYP2D6, compound at 10 μM",87.1%
same,percentage of activity remaining in the presence of the compound,"[4]; CYP2D6, compound at 100 μM",70.7%
same,percentage of activity remaining in the presence of the compound,"[5]; CYP3A4, compound at 10 μM",80.7%
same,percentage of activity remaining in the presence of the compound,"[5]; CYP3A4, compound at 100 μM",47.9%
